{"sequences": {"note": "Chains of the proteins cited; added tags and fusions are not shown. Lines headed by an entry give the natural chain unless they say otherwise; changes in a name come on top.", "UniProt P28336": "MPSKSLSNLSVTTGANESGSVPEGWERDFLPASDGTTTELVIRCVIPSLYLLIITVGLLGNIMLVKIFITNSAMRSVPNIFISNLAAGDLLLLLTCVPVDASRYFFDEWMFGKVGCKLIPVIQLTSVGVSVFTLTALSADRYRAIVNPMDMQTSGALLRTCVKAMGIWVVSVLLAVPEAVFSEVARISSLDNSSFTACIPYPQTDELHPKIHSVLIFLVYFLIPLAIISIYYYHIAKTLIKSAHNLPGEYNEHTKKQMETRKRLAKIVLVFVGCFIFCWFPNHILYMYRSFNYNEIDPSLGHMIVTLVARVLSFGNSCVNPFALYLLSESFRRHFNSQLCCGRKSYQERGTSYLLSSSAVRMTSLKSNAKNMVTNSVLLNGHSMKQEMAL"}, "source": "paper PMC6422423", "about": "(2019)", "biological_target": "neuromedin B receptor (UniProt P28336 1-390)", "assay": "competition with 125I-NMB"}
{"binder": "YKIKVNPRGNLWATGHFM", "note": "[neuromedin B, unlabeled ligand peptide of the radioligand binding assays]", "values": [{"measurement": "IC50", "result": 1.18, "unit": "nM"}]}
